Test results taken from paper PMC8842224 (2022).

Amino acid sequences for entries named in this document (tags omitted).
UniProt P30542, whole entry: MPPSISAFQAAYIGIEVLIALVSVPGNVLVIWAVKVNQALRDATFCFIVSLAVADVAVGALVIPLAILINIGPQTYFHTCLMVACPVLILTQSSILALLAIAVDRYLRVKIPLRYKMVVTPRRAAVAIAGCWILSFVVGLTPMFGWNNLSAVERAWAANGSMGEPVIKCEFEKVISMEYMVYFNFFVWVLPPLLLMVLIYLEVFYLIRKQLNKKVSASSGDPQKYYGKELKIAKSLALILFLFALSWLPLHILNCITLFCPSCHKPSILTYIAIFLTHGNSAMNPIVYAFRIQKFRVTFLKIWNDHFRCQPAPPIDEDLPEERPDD
UniProt P0DMS8, whole entry: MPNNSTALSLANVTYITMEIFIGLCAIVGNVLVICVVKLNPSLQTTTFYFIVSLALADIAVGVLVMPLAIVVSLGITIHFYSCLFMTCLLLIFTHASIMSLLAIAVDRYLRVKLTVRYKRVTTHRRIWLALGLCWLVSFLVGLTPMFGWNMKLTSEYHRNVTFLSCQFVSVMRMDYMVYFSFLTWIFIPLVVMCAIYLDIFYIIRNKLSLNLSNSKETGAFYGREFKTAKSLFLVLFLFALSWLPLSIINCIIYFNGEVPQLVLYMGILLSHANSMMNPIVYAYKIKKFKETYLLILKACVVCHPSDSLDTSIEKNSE

Each compound was assayed against human A2AAR (Homo sapiens, UniProt P29274) (assay: not given). Conditions: [3H]ZM241385, human HeLa cells, n = 2.

| Compound | hA2A percentage displacement of specific binding at 1 μM [%] |
| --- | --- |
| N#Cc1c(-c2ccccc2)nc(Nc2ccccc2)nc1-c1cc(F)cc(F)c1 [19ai] | 1 |
| N#Cc1c(-c2ccccc2)nc(N)nc1-c1c(F)cc(F)cc1F [18w] | 2 |
| CNc1nc(-c2ccccc2)c(C#N)c(C2CCCCC2)n1 [19bg] | 1 |
| N#Cc1c(-c2ccccc2)nc(Nc2ccccc2)nc1-c1cc(Cl)cc(Cl)c1 [19al] | 1 |
| CNc1nc(-c2ccccc2)c(C#N)c(-c2ccc(F)cc2F)n1 [19af] | 3 |
| CNc1nc(-c2ccccc2)c(C#N)c(-c2ccccc2OC)n1 [19h] | 1 |
| COc1ccc(-c2nc(Nc3ccccc3)nc(-c3ccc(OC)cc3)c2C#N)cc1 [19bn] | 2 |

What follows are compounds tested against human A1AR (Homo sapiens, UniProt P30542) (assay: not given). Conditions: read-out: hA1 Ki; displacement of specific [3H]DPCPX binding, human CHO cells, ± SEM, n = 3.

| Compound | Ki [nM] |
| --- | --- |
| N#Cc1c(-c2ccccc2)nc(N)nc1-c1ccccc1 [18a] | 4.42 ± 0.16 |

Each compound was assayed against human A3AR (Homo sapiens, UniProt P0DMS8) (assay: biochemical). Conditions: 3 h, read-out: hA3 percentage displacement of specific binding at 1 μM.

| Compound | inhibition at 1 µM [%] |
| --- | --- |
| CNc1nc(-c2ccccc2)c(C#N)c(-c2ccc(OC)cc2)n1 [19ab] | 1 |
| CN(C)c1nc(-c2ccccc2)c(C#N)c(-c2cccc(Cl)c2)n1 [20b] | 2 |
| N#Cc1c(-c2ccccc2)nc(N)nc1-c1ccc(-c2ccccc2)cc1 [18ag] | 1 |
| CNc1nc(-c2ccccc2)c(C#N)c(-c2ccoc2)n1 [19ax] | 1 |

What follows are compounds tested against T1, human A2BAR (Homo sapiens, UniProt P29275) (assay: biochemical). Conditions: read-out: hA2B percentage displacement of specific binding at 1 μM.
T1 sequence (P29275 1-332): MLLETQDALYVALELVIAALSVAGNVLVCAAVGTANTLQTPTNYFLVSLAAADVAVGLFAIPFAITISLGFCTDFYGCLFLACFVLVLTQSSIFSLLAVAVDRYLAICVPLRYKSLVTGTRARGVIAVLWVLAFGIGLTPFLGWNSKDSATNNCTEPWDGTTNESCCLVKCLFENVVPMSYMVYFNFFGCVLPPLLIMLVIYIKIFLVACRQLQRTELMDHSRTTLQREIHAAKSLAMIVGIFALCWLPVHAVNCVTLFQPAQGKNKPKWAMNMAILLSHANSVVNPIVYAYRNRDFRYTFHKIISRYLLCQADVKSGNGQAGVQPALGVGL

| Compound | inhibition at 1 µM [%] |
| --- | --- |
| N#Cc1c(-c2ccccc2)nc(Nc2ccccc2)nc1-c1cccc(F)c1 [19k] | 9 |
